# Data as given in ChEMBL document CHEMBL1811785, “Investigations on the 4-quinolone-3-carboxylic acid motif. 4. Identification of new potent and selective ligands for the cannabinoid type 2 receptor with diverse substitution patterns and antihyperalgesic effects in mice” (J Med Chem, 2011).
# Chains of the proteins cited; added tags and fusions are not shown.
# UniProt P21554, whole entry: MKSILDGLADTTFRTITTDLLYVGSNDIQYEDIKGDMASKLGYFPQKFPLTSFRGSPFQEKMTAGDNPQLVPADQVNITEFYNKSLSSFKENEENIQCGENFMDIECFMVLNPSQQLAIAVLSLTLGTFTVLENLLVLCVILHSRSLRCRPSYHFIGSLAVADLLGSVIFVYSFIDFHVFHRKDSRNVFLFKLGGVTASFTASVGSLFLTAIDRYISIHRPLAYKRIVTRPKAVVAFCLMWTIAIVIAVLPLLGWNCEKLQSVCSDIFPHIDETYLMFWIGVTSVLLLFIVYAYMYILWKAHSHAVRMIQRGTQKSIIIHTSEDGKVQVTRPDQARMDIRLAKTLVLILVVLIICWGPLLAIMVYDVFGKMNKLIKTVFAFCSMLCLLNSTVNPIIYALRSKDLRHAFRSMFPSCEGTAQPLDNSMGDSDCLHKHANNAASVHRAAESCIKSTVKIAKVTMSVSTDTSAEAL
# Molecular target: Cannabinoid receptor 1 (Homo sapiens, UniProt P21554)
# Assay: biochemical
# Type: cell-based, HEK293
smiles,measurement,value
Cc1ccc(Cn2nc(C(=O)N[C@@H]3C(C)(C)[C@@H]4CC[C@@]3(C)C4)cc2-c2ccc(Cl)c(C)c2)cc1 [SR-144528],Ki,> 2820 nM
